SMILES strings stand for the structures. pIC50: −log10 of the molar value.

By UniProt entry, the sequences of proteins in these tests, tags left out.
UniProt P35968, whole entry: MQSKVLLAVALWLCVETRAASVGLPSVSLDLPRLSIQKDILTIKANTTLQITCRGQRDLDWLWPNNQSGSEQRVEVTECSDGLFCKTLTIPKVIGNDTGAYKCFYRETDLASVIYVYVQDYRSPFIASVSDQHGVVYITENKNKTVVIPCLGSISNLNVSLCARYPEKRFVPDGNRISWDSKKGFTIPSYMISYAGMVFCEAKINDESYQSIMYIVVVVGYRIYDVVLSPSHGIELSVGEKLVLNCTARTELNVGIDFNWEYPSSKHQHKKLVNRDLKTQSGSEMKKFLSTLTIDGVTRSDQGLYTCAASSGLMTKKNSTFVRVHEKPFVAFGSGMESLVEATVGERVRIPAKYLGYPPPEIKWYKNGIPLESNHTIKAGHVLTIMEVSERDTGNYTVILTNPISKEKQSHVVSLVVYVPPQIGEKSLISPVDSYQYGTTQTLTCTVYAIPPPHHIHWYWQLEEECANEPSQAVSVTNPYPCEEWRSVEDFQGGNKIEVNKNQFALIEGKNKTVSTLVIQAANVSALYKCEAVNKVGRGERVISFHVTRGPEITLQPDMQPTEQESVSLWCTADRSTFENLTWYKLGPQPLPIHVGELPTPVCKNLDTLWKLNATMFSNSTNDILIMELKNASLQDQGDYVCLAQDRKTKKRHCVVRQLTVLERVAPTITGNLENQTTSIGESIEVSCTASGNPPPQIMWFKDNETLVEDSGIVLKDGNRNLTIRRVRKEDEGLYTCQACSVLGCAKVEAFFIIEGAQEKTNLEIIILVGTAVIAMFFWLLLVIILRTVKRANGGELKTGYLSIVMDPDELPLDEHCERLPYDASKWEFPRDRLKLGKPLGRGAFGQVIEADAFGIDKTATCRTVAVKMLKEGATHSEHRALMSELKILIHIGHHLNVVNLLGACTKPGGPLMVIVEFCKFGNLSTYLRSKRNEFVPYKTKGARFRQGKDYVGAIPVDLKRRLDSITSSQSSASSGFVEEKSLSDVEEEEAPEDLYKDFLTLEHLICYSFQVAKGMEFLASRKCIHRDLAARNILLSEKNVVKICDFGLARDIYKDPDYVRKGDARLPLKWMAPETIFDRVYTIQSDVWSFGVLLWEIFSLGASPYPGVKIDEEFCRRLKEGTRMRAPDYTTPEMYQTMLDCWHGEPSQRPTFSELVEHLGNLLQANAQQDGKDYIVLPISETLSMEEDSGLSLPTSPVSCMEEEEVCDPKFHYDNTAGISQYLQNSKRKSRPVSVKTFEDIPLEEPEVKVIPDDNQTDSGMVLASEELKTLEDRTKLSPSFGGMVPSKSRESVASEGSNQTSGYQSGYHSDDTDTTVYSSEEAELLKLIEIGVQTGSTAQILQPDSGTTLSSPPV

This test concerns the target Vascular endothelial growth factor receptor 2 (Homo sapiens, UniProt P35968).

Take `COc1ccc(-c2cnc3c(-c4ccsc4)cnn3c2)cc1`: the pIC50 (in general, −log10 of the IC50, conventionally taken in molar units) is 6.73.
